The subject of this data set is panel of Human P450 enzymes. Briefly: Specificity of dealkylation of CMFDE and MF by a panel of human P450 enzymes. The following applies: any of the human P450 enzymes; 1 uM substrate.

In the case of “5-(and-6)-chloromethylfluorescein diethyl ether [CMFDE]”, the “substrate quality based on turnover number” value is “not a good substrate”.

For the origin of these results see patent publication US6420131B1, “Use of fluorescein aryl ethers in high throughput cytochrome P450 inhibition assays” (Gentest Corporation, priority 1999, dated 2002).
